Laboratory results from the supplement of paper PMC12613149.

Tests used:
[1] = collision cross section (TIMS, N2 drift gas) of the primary ion; higher = larger gas-phase ion size; settings: ionization mode: ESI+
Experimental: (§1)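 Reference mixture of environmental contaminants analysed by RP-LC (BEH C18, 50 °C; ESI+ with water/MeOH plus formic acid and ammonium formate, ESI- with ammonium bicarbonate) coupled to a timsTOF Pro 2 with trapped ion mobility in nitrogen (ramp/accumulation 100 ms). CCS was calibrated with Agilent tune mix (CCS compendium) and averaged over five injections at 0.5-500 ng/mL. The table reports the lowest-CCS (putative monomer) peak; retention times are on the same gradient.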

[2] = reversed-phase LC retention time (C18, 15 min MeOH gradient); higher = more hydrophobic / later elution; settings: ionization mode: ESI+
Experimental: as §1

SMILES | collision cross section ([1]; ion species: [M]+) [Å²] | reversed-phase LC retention time ([2]; ion species: [M]+) [min] | collision cross section ([1]; ion species: [M+H]+) [Å²] | reversed-phase LC retention time ([2]; ion species: [M+H]+) [min]
CCC[N+](CCC)(CCC)CCC [Tetrapropylammonium] | 145.78 | 7.43 | – | –
CCOP(=S)(OCC)Oc1ncn(-c2ccccc2)n1 [Triazophos] | – | – | 171.3 | 14.5
